Reference: patent US11918770B2, “Implants for localized drug delivery and methods of use thereof” (The Regents of the University of California, priority 2014, dated 2024)

Protein sequences, listed by entry. Tags and fused reporters are not part of them.
UniProt P03372, whole entry: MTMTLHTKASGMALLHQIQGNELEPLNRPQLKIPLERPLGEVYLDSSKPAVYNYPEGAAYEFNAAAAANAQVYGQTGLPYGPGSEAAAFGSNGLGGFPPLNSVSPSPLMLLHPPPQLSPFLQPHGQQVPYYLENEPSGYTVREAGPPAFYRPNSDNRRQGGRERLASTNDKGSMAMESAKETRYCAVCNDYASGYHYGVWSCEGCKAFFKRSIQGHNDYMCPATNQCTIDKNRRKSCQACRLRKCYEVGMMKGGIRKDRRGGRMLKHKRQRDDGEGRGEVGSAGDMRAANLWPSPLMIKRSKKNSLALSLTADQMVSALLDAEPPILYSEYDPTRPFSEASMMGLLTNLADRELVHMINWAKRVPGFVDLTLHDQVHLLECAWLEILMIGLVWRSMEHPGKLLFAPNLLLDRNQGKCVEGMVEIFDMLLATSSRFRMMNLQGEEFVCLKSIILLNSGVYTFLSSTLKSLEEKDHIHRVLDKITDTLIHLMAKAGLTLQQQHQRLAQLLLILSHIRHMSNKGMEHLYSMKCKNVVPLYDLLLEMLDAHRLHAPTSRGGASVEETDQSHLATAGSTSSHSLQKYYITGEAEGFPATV

Target: estrogen receptor (ER) (Homo sapiens, UniProt P03372)
Experiment: Western blot for ER and PR expression in MCF7 cells
Assay type: cell-based
Conditions: fulvestrant released from Silastic tubing
Method: Each sealed (10 cm) tube was immersed into a 10 cm culture tube containing 5 mL culture media (Dulbecco's Modified Eagle's medium (DMEM)+10% fetal bovine serum (FBS)+penicillin and streptomycin) approximating interstitial tissue surrounding the breast tissue. These tubes were set on a rocker in an incubator at 37° C. for 1, 2, 5, 10, 15, 21 and 30 days. After each time point media was collected and stored at −80° C. for further analysis for western blotting, viability/proliferation assay by MTS (3-(4,5-dimethylthiazol-2-yl)-5-(3-carboxymethoxyphenyl)-2-(4-sulfophenyl)-2H-tetrazolium) and quantitation by liquid chromatography-tandem mass spectrometry (LC-MS/MS). Additional iteration was to perform repeated washes on the same sealed tube and collect the culture medium at days 1, 2, 5, 10, 15, 21, and 30.
MCF-7 culture were propagated and seeded in 6 cm dishes at 300,000 cells per dish and allowed to adhere overnight as a monolayer. […] The drug concentrations and biological effects of the drug eluted from specific tubes were evaluated by Mass spectroscopy, Western Blot analysis and antiproliferative methods after exposure for 3 days.
The medium was then used to culture MCF7 cells for 72 h, and the cells were assayed for proliferation by MTS assay (Panel A) and harvested for protein and western blotted for ER and PR expression (Panel B).

duration of sustained drug release sufficient to inhibit ER and PR expression (daily washout, medium harvested every 24 hours): at least 28 days
duration of ER inhibition / down-regulation of ER expression (MCF7 cells): > 12 weeks
SMILES: C[C@]12CC[C@@H]3c4ccc(O)cc4C[C@@H](CCCCCCCCC[S+]([O-])CCCC(F)(F)C(F)(F)F)[C@H]3[C@@H]1CC[C@@H]2O (some centres unmarked) [fulvestrant]
